# System: anti-human albumin polyclonal antibody
# Experiment: ELISA assay of free albumin and albumin PRINT particles for biological function determination
# Format: binding
# Conditions: 5-500 ng/mL; particles harvested directly using buffer; compared with free albumin
# Method: A standard ELISA assay was conducted on free albumin and albumin PRINT particles. […] Protein PRINT particles were harvested directly using buffer. In the case of human albumin free protein and protein PRINT particle, an anti-human albumin polyclonal antibody was used and the respective capture antibody in the ELISA.
substance,measurement,value
"albumin PRINT particles: human albumin nanomolded by PRINT, harvested directly using buffer",retention of biological structure and function after molding (ELISA),retains biological structure and function

# Source: patent US20130177598A1, “DISCRETE SIZE AND SHAPE SPECIFIC PHARMACEUTICAL ORGANIC NANOPARTICLES” (The University of North Carolina at Chapel Hill, priority 2007, published 2013)
